Experimental data taken from ChEMBL document CHEMBL1221329, “Identification of a novel NR2B-selective NMDA receptor antagonist using a virtual screening approach” (Bioorg Med Chem Lett, 2010).

The chains behind the UniProt entries cited, without tags or fusion partners.
UniProt Q13224, whole entry, looked up: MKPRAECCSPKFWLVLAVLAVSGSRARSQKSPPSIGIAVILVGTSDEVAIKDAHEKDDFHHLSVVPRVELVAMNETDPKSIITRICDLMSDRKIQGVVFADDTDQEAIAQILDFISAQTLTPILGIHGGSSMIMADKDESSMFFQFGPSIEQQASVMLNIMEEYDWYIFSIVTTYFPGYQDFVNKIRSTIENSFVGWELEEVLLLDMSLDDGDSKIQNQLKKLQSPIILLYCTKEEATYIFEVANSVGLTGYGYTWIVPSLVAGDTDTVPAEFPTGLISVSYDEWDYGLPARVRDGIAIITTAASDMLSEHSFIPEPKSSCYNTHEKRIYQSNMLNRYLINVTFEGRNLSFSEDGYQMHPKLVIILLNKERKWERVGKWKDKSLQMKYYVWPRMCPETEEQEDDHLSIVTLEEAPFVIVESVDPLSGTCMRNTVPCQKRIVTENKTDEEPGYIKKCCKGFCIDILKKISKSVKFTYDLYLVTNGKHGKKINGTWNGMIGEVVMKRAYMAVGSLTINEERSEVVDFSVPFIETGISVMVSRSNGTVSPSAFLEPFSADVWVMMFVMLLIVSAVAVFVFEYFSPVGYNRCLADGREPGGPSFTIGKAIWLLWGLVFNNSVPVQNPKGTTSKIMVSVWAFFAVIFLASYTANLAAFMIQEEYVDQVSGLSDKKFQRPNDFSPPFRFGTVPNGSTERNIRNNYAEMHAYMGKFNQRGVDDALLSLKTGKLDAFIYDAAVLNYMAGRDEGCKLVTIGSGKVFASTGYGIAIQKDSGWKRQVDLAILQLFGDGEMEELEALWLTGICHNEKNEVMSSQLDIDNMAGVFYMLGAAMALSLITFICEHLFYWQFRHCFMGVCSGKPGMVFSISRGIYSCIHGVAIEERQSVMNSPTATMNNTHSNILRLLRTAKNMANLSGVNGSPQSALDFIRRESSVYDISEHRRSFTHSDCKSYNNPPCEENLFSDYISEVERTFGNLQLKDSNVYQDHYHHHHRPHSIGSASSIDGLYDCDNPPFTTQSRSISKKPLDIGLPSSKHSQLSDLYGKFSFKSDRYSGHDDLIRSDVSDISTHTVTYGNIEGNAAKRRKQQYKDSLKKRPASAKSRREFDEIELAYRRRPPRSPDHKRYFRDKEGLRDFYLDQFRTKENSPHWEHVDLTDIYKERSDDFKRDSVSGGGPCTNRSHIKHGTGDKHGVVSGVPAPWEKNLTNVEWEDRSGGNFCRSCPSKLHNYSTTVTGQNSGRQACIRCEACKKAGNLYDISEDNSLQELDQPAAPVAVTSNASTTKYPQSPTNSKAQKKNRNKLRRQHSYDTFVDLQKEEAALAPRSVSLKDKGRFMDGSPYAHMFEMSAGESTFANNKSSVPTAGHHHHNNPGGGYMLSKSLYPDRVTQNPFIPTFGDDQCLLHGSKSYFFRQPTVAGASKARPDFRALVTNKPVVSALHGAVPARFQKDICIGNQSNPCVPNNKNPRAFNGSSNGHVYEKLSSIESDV
UniProt Q12879, whole entry, looked up: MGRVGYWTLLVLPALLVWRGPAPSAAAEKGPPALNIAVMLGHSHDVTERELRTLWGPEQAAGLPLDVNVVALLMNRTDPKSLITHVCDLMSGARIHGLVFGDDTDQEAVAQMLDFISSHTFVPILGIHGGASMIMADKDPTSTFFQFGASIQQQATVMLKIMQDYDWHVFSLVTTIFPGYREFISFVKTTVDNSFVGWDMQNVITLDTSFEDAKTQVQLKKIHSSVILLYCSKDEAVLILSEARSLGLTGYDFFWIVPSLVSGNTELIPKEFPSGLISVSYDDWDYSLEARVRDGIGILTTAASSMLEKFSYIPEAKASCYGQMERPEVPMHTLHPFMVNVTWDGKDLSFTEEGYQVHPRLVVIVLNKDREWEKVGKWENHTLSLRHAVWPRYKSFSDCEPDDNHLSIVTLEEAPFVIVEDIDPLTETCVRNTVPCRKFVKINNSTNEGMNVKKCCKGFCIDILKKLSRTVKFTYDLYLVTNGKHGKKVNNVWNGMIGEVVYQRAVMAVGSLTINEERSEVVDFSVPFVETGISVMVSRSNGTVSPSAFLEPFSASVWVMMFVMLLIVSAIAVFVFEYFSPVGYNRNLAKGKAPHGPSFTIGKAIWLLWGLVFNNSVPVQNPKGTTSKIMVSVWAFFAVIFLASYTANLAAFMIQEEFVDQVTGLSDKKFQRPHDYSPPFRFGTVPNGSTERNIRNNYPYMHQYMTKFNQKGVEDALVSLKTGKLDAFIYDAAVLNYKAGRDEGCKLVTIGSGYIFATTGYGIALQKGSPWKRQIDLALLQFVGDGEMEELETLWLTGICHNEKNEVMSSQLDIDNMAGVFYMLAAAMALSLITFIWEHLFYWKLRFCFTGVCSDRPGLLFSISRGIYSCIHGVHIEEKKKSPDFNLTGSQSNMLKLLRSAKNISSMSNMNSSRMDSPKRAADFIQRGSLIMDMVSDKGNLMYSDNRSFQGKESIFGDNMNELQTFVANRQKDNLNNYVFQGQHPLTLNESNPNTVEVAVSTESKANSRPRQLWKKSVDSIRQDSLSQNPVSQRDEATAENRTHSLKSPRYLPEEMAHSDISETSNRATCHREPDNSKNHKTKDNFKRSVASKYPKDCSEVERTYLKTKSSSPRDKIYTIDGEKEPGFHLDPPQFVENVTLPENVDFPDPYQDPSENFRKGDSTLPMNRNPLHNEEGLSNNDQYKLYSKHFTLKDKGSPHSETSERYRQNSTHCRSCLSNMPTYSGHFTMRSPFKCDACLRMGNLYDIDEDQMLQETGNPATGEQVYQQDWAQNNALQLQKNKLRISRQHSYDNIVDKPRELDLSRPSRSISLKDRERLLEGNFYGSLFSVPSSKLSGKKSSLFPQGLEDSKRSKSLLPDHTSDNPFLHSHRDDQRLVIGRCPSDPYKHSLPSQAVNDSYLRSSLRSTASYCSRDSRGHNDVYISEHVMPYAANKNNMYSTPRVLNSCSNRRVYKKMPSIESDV

Legend:
Type in all cases: functional, cell-based
Conditions in all cases: Oocyte
[1] = molecular target: T1, Glutamate NMDA receptor; GRIN1/GRIN2B (Homo sapiens, UniProt Q05586+Q13224); assay: Antagonist activity at wild type NR1/NR2B receptor expressed in Xenopus oocytes assessed as ratio of residual current induced by agonist in presence of compound to residual current induced by agonist alone at 10 uM by two-electrode voltage-clamp method
[2] = molecular target: Glutamate NMDA receptor; GRIN1/GRIN2A (Homo sapiens) (UniProt Q05586+Q12879); assay: Antagonist activity at wild type NR1/NR2A receptor expressed in Xenopus oocytes assessed as ratio of residual current induced by agonist in presence of compound to residual current induced by agonist alone at 10 uM by two-electrode voltage-clamp method
[3] = molecular target: T1, Glutamate NMDA receptor; GRIN1/GRIN2B; assay: Antagonist activity at wild type NR1/NR2B receptor expressed in Xenopus oocytes assessed as inhibition of agonist-induced current amplitude at 10 uM by two-electrode voltage-clamp method

Work on CCCN1C(N2CCN(CC(=O)c3cc4ccccc4[nH]3)CC2)=NC2C1C(=O)NC(=O)N2C (stereo not drawn) yielded a Ratio [1] of 0.95, a Ratio [2] of 0.98 and an inhibition [3] of under 20%.
